The target in this experiment is T1, soluble human FcRn (Homo sapiens, UniProt P55899).
T1 construct: encoding the extracellular part of the human FcRn α-chain (nucleotides 70-1095); made in house; host or cells: HEK 293F (transient, PIGG vector), purified on immobilized Fc-stop
As to the kind of experiment: ELISA binding of Rituximab conjugates to soluble human FcRn. As to conditions: 8 μg/mL. How it is done: Soluble human FcRn was engineered and expressed as described above. Briefly, both cDNA sequences of the heterodimeric human FcRn, α-chain and β2 microglobulin, were cloned into the bidirectional CMV promoter cassette of the PIGG vector. Transient transfection of the soluble human FcRn expression vector into HEK 293F cells, culturing of the cells, and concentration of the supernatant were carried out as described for Rituximab expression. The concentrated supernatant was subsequently brought into acidic PBS (pH 6.0). For purification, Fc-stop protein was immobilized to an NHS HiTrap column (GE Healthcare) using the manufacturer's protocol. After loading the concentrated supernatant in acidic PBS (pH 6.0), the column was washed with 30 mL acidic PBS (pH 6.0), and bound soluble human FcRn was eluted with neutral PBS (pH 7.4).
To analyze and compare the binding of Rituximab and specifically conjugated Rituximab-Sec-His to commercially available soluble human FcγRI, FcγRIIA, and FcγRIIIA (all from R&D Systems) as well as to soluble human FcRn, 500 ng of each Fc receptor was coated and blocked on a 96-well plate as described above. […]
(ELISA stands for enzyme-linked immunosorbent assay.)

The chains behind the UniProt entries cited, without tags or fusion partners. Residues count along the entry.
UniProt P55899, 24-297 limits assumed: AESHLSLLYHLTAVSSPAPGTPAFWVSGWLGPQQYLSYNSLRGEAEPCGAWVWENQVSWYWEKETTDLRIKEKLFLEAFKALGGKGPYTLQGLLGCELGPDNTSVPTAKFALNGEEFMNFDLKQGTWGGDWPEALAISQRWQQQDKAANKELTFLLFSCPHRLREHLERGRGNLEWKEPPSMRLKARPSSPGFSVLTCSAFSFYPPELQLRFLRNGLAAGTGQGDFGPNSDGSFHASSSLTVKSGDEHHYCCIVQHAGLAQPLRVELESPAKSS

We go through one substance from patent US8916159B2, “Selenocysteine mediated hybrid antibody molecules” (The United States of America, as represented by the …, priority 2007, dated 2014).

Consider “Rituximab-Sec-His/fluorescein: Rituximab-Sec-His conjugated at Sec to fluorescein-5-maleimide (FITC derivative with maleimide moiety)”, for which the “binding to immobilized human FcRn at pH 6.0” value (acidic PBS pH 6.0) is on record as “detectable at pH 6.0”. For the same substance, the “binding to immobilized human FcRn at pH 7.4” value (neutral PBS pH 7.4) is “not at pH 7.4”.
